This test relates to von Hippel-Lindau disease tumor suppressor/Epidermal growth factor receptor (Homo sapiens), P00533+P40337 [UNDEFINED MUTATION]. Kind of test: PROTAC activity at VHL/EGFR Del19 mutant in human HCC827 cells assessed as EGFR degradation treated after 8 hrs under serum starvation condition at 10 to 1000 nM measured after 16 hrs by Western blotting analysis. In kind it is cell-based. To be noted: dose 10-1000 nM.

Protein sequences, listed by entry. Tags and fused reporters are not part of them.
von Hippel-Lindau disease tumor suppressor/Epidermal growth factor receptor (Homo sapiens), P00533+P40337, UniProt P40337, whole entry, looked up, stated change not applied: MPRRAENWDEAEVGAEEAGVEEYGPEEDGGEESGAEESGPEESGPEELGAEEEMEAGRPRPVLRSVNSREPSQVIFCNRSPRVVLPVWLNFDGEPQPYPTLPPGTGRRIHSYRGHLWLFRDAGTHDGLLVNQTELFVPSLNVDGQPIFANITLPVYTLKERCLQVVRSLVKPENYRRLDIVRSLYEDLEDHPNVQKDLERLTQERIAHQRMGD

Active and inactive are the calls of the source. The rule behind the calls is not given here.

Regarding `COc1cc2ncnc(Nc3ccc(F)c(Cl)c3)c2cc1OCCCN1CCN(C(=O)C[C@H](NC(=O)[C@@H]2C[C@@H](O)CN2C(=O)[C@@H](c2cc(C)no2)C(C)C)c2ccc(-c3scnc3C)cc2)CC1`, the result was Active.

The values above are taken from ChEMBL document CHEMBL5131542, “Exploring Degradation of Mutant and Wild-Type Epidermal Growth Factor Receptors Induced by Proteolysis-Targeting Chimeras” (J Med Chem, 2022).
